Source: PubChem (ICCB-Longwood Screening Facility, Harvard Medical School)
GIV Gai3 FP – inhibitors of GIV peptide binding to Galpha-i3, primary screen, biochemical, fluorescence polarization, FITC-GIV GBA peptide, rat Galphai3; 90 min; stronger effect = lower value; scaled: aluminum fluoride 0%, vehicle 100%; percent of control (FP), % (test concentration not listed); 0.42% of 210,000 active; AID 1224905, 2016;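 active = replicate mean at 85% of control or lower, very high polarization wells dropped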;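 also: wells of about 15 µL received 100 nL stock; the first replicate is given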
HCMV UL50-53 inh – inhibitors of HCMV UL50-UL53 interaction, biochemical, HTRF; HCMV UL50-UL53 nuclear egress complex (human cytomegalovirus); normalized percent inhibition; inhibition, % (concentration not given with the values); hit rate 0.15% among 190,000; in the data active means inhibition above about 27%, passing the limit was not always enough
GIV-Gai FP conf – inhibitors of GIV peptide binding to Galpha-i3, confirmation, biochemical, fluorescence polarization, FITC-GIV peptide, rat Galphai3; shares compounds with GIV Gai3 FP; fluorescence polarization, mP at 100 µM; hit rate 38% among 580; hits give low values;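 active means inhibition score of 15 or more, meaning 100 minus mean polarization as percent of control over three replicates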;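 further: lower mP means peptide displaced from Galphai3 so more inhibition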
GIV-Gai AS conf – inhibitors of GIV binding to Galpha-i3, confirmation, orthogonal assay for GIV-Galpha-i inhibitor project, biochemical, AlphaScreen, His-GIV, GST-Galphai3. shares compounds with GIV Gai3 FP. purified proteins, 90 min; hits give low values. AlphaScreen counts at 100 µM. hit rate 39% among 580. AID 1259351, 2017;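 active means inhibition score at or above a set limit, where the score is 100 minus the three-replicate mean percent of control signal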
Hits are given with their value. Compounds with a hit are over-represented: about 0.43% of the library has one in this group of screens.

What do the screens show for `CC1CN(C(=O)C2=NN(c3ccccc3)C(=O)CC2)CC(C)O1` (stereo not drawn)?
HCMV UL50-53 inh: inactive

How did O=C(CN1C(=O)c2ccccc2C1=O)Nc1ccc(S(=O)(=O)N2CCCCC2)cc1 do in these assays?
GIV Gai3 FP: inactive; HCMV UL50-53 inh: inactive

How did O=C(Nc1ccccc1)N1CCc2sccc2C1c1ccc(C(F)(F)F)cc1 (stereo not drawn) do in these assays?
GIV Gai3 FP: inactive; HCMV UL50-53 inh: inactive

Results for CCN1/C(=C\C=C\c2n(CC)c3cc(Cl)c(Cl)cc3[n+]2CCCS(=O)(=O)[O-])N(CCCS(=O)(=O)O)c2cc(Cl)c(Cl)cc21 ?
GIV Gai3 FP: 79; GIV-Gai FP conf: inactive; GIV-Gai AS conf: 10331

How did CN(C)c1ccc(-c2nc3cnc(Br)cn3c2Nc2ccc3c(c2)OCCO3)cc1 do in these assays?
GIV Gai3 FP: inactive

Results for CC(O)C(O)[C@H]1CNc2nc(N)[nH]c(=O)c2N1 (stereo partly drawn) ?
GIV Gai3 FP: inactive; HCMV UL50-53 inh: inactive

How did C[C@H](O)C(=O)C1=Nc2c(nc(N)[nH]c2=O)NC1 do in these assays?
GIV Gai3 FP: 73; HCMV UL50-53 inh: inactive; GIV-Gai FP conf: inactive; GIV-Gai AS conf: 29102

Results for Cc1ccc(NC(=O)C2CCN(c3ncccn3)CC2)cc1F ?
GIV Gai3 FP: inactive; HCMV UL50-53 inh: inactive

What do the screens show for `O=C(Nc1cccc(F)c1F)C1CCN(c2ncccn2)CC1`?
GIV Gai3 FP: inactive; HCMV UL50-53 inh: inactive; GIV-Gai FP conf: inactive; GIV-Gai AS conf: inactive

How did COc1ccccc1NC(=O)Cn1c(=O)n(Cc2ccc3c(c2)OCO3)c(=O)c2oc3ccccc3c21 do in these assays?
GIV Gai3 FP: inactive; HCMV UL50-53 inh: inactive

How did Cc1ccc2c(c1)c1c(n2C)C(C#N)CCC1 (stereo not drawn) do in these assays?
GIV Gai3 FP: inactive; HCMV UL50-53 inh: inactive

What do the screens show for `Cc1ccc2c(c1)c1c3c(nccn32)CCC1`?
GIV Gai3 FP: 76; HCMV UL50-53 inh: inactive; GIV-Gai FP conf: 61; GIV-Gai AS conf: inactive

Results for Cc1nc(N2CCN(c3ccccn3)CC2)nc2oc(-c3ccccc3)nc12 ?
GIV Gai3 FP: inactive; HCMV UL50-53 inh: inactive; GIV-Gai FP conf: inactive; GIV-Gai AS conf: inactive

Results for Cc1nc(N2CCCC2)nc2oc(-c3ccccc3)nc12 ?
GIV Gai3 FP: inactive; HCMV UL50-53 inh: inactive

What do the screens show for `Cc1[nH]c(=O)n(C(C)(C)C)c(=O)c1C`?
HCMV UL50-53 inh: inactive

Results for COC(=O)c1c(NC(=O)CC2Sc3ccccc3NC2=O)sc(C)c1C (stereo not drawn) ?
HCMV UL50-53 inh: inactive

Results for COC(=O)c1c(NC(=O)CC2Nc3cc(C)c(C)cc3NC2=O)sc(C)c1C (stereo not drawn) ?
GIV Gai3 FP: inactive; GIV-Gai FP conf: 22; GIV-Gai AS conf: inactive

Results for COC(=O)c1c(C)[nH]c(C(=O)COC(=O)C23CC4CC(CC(NC(C)=O)(C4)C2)C3)c1C ?
HCMV UL50-53 inh: inactive

What do the screens show for `O=C(/C=C/c1ccccc1)/C=C/c1ccccc1`?
GIV Gai3 FP: 80; GIV-Gai FP conf: 47; GIV-Gai AS conf: 17701

What do the screens show for `O=C(O)/C=C/c1ccc(/C=C/C(=O)O)cc1`?
GIV Gai3 FP: inactive; HCMV UL50-53 inh: inactive

Results for CCOC(=O)/C(C#N)=C/c1ccc(-c2ccc(Cl)c(C(=O)OC)c2)o1 ?
GIV Gai3 FP: 65; HCMV UL50-53 inh: inactive; GIV-Gai FP conf: inactive; GIV-Gai AS conf: inactive

What do the screens show for `CCOC(=O)/C(C#N)=C/c1ccc(-c2ccc(Br)cc2)o1`?
GIV Gai3 FP: inactive; HCMV UL50-53 inh: inactive

Results for CCSc1nn(CC(=O)Nc2ccc3c(c2)OCO3)c(N)c1S(=O)(=O)c1ccccc1 ?
GIV Gai3 FP: inactive; HCMV UL50-53 inh: inactive

Results for Cc1ccccc1C(=O)N1CCc2c(c(C(=O)N3CCCC(C(=O)Nc4ccccc4)C3)nn2C)C1 (stereo not drawn) ?
GIV Gai3 FP: inactive

Results for CC(=O)Nc1ccccc1N1CCOCC1 ?
GIV Gai3 FP: inactive; HCMV UL50-53 inh: inactive

Results for CC1=CCC2C(=O)N(c3ccccn3)C(=O)C2C1 (stereo not drawn) ?
GIV Gai3 FP: inactive

How did CCOc1cc(C=C2C(=O)NC(=O)NC2=O)cc(Cl)c1OC(=O)c1ccc(OC)cc1 do in these assays?
GIV Gai3 FP: 75; HCMV UL50-53 inh: 49; GIV-Gai FP conf: inactive; GIV-Gai AS conf: inactive

What do the screens show for `CCOc1cc(/C=C2\SC(=S)NC2=O)cc(Cl)c1OC(=O)c1ccc(OC)cc1`?
GIV Gai3 FP: inactive

Results for CC(=O)N1CCC2(CC1)OC(=O)C(C)=C2C(=O)NCc1ccccc1 ?
GIV Gai3 FP: inactive; HCMV UL50-53 inh: inactive

How did O=C1N=C(N2CCN(C3=NC(=O)/C(=C/c4ccc5c(c4)OCO5)S3)CC2)S/C1=C\c1ccc2c(c1)OCO2 do in these assays?
GIV Gai3 FP: inactive

How did CCCn1cc(S(=O)(=O)c2ccc(CC)cc2)c(=O)c2cc(F)c(N3CCN(C)CC3)cc21 do in these assays?
GIV Gai3 FP: inactive

How did CCCn1cc(S(=O)(=O)c2ccc(OC)cc2)c(=O)c2cc(F)c(N3CCN(C)CC3)cc21 do in these assays?
GIV Gai3 FP: 68; HCMV UL50-53 inh: inactive; GIV-Gai FP conf: inactive; GIV-Gai AS conf: inactive

How did Cc1cc2c3c(c(Br)cc(S(=O)(=O)O)c3n1)C(=O)c1ccccc1-2 do in these assays?
GIV Gai3 FP: 83; GIV-Gai FP conf: 25; GIV-Gai AS conf: 2617

Results for Cc1cc2c3c(c(N)cc(S(=O)(=O)O)c3n1)C(=O)c1ccccc1-2 ?
GIV Gai3 FP: inactive

How did COc1ccc2c(c1)N(C)/C(=C1/SC(=S)N(C)C1=O)S2 do in these assays?
GIV Gai3 FP: inactive; HCMV UL50-53 inh: inactive; GIV-Gai FP conf: inactive; GIV-Gai AS conf: inactive

Results for COc1ccc2c(c1)N(C1CCCCC1)/C(=C1/SC(=S)N(C)C1=O)S2 ?
GIV Gai3 FP: inactive

How did COc1ccccc1/C=C1\C(=O)N(c2ccc(C)cc2)C2=C1C(c1ccccc1)N(c1ccc(C)cc1)C2=O (stereo not drawn) do in these assays?
GIV Gai3 FP: inactive

How did Cc1ccc(N2C(=O)/C(=C\c3ccc(C(C)C)cc3)C3=C2C(=O)N(c2ccc(C)cc2)C3c2ccccc2)cc1 (stereo not drawn) do in these assays?
GIV Gai3 FP: 85; GIV-Gai FP conf: inactive; GIV-Gai AS conf: inactive

How did O=C(CC1C(=O)Sc2[nH]c(=O)sc21)c1ccc(F)cc1 (stereo not drawn) do in these assays?
HCMV UL50-53 inh: inactive

What do the screens show for `Cc1cc(C)n2nc3nc(N4CCCC4)nc(-c4ccccc4)c3c2n1`?
GIV Gai3 FP: inactive; HCMV UL50-53 inh: inactive

Results for COc1ccc(-c2nc(N3CCC(C)CC3)nc3nn4c(C)cc(C)nc4c23)cc1 ?
GIV Gai3 FP: inactive; HCMV UL50-53 inh: inactive; GIV-Gai FP conf: inactive; GIV-Gai AS conf: inactive

How did CCc1ccc(S(=O)(=O)/N=C2/C=C(Nc3ccccc3)C(=O)c3ccccc32)cc1 do in these assays?
GIV Gai3 FP: inactive

What do the screens show for `CCc1ccc(S(=O)(=O)/N=C2\C=CC(=O)c3ccccc32)cc1`?
GIV Gai3 FP: 5.6; GIV-Gai FP conf: 12; GIV-Gai AS conf: 1607

How did O=C(NC1CCCCC1)C1CCCN(C(=O)c2cc(-c3ccncc3)n[nH]2)C1 (stereo not drawn) do in these assays?
GIV Gai3 FP: inactive; HCMV UL50-53 inh: inactive
